Literature values, collected in patent US10273304B2, “Biomarker profiles for predicting outcomes of cancer therapy with ERBB3 inhibitors and/or chemotherapies” (Merrimack Pharmaceuticals, Inc., priority 2013, dated 2019).

Tested on: patients whose tumors express EGFR
Conditions: cited from earlier work

Substance: cetuximab: monoclonal antibody that targets the epidermal growth factor receptor (EGFR)
- patients who respond to monotherapy: 15-20%
